In US20180273507A1, “CRYSTAL FORMS OF A M1 RECEPTOR POSITIVE ALLOSTERIC MODULATOR” (Merck Sharp & Dohme Corp., priority 2015, published 2018):

Experiment: Hydrogen peroxide stress (2-electron oxidation) forced degradation, HPLC monitored
Conditions: 3% hydrogen peroxide in 50:50 methanol:water, up to 24 hours, ambient and 5° C. temperatures

degradation in the presence of 3% hydrogen peroxide: less than 0.1%
Structure (SMILES): Cc1ccc(Cc2cc3c(=O)n([C@H]4CCCC[C@@H]4O)cnc3c3ccccc23)cn1.O=C(O)/C=C/C(=O)O [3-[(1S,2S)-2-Hydroxycyclohexyl]-6-[(6-methyl-3-pyridinyl)methyl]benzo-[h]quinazolin-4(3H)-one (2E)-2-butenedioate]
